Data on one substance can be found in US20190241661A1.

For this experiment, the target named is combination of trastuzumab and pertuzumab (Homo sapiens (Human)) [IgG part: P0DOX5]. Kind of experiment: flow cytometry; BT-474 cells with 10 µg/mL antibody, then 10 µg/mL C1q, PE-labeled anti-C1q antibody. On the technique in general: Flow cytometry measures light scatter and fluorescence of single cells or particles in a stream.

Consider “complement factor C1q (Sigma Aldrich, Cat. No. C1740) (from UniProt P02745 23-245; P02746 28-253; P02747 29-245)”, for which the PE-signal (geomean) was found to be 2160 geomean PE.
